Drawing on US9029367B2, “BACE inhibitors” (Eli Lilly and Company, priority 2013, dated 2015), this text covers IC50 for one compound.

Amino acid sequences for entries named in this document (tags omitted). Residues count along the entry.
UniProt P56817, 22-460: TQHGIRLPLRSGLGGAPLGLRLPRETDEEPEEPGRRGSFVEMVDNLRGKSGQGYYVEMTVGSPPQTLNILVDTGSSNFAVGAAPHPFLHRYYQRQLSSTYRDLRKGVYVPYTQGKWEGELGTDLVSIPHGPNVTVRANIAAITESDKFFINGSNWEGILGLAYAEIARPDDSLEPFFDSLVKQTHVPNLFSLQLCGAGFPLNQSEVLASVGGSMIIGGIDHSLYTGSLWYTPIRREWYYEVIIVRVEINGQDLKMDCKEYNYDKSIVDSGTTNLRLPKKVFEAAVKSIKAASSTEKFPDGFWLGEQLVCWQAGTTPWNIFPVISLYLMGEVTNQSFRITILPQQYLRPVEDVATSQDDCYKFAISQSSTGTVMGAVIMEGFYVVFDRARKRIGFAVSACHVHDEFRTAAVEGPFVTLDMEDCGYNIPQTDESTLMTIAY

Usually IC50 stands for the concentration at which inhibition is half-maximal.

This experiment concerns the target human BACE1 (1-460):Fc (Homo sapiens (Human), UniProt P56817). As to the kind of experiment: BACE1 FRET Assay. In kind it is biochemical. The note with it: purified recombinant huBACE1:Fc, FRET substrate, pH 4.6; Mean ± SEM. The protocol: For in vitro enzymatic and cellular assays, test compounds are prepared in DMSO to make up a 10 mM stock solution. The stock solution is serially diluted in DMSO to obtain a ten-point dilution curve with final compound concentrations ranging from 10 μM to 0.05 nM in a 96-well round-bottom plate before conducting the in vitro enzymatic and whole cell assays.
Human BACE1 (accession number: AF190725) is cloned from total brain cDNA by RT-PCR. The nucleotide sequences corresponding to amino acid sequences #1 to 460 are inserted into the cDNA encoding human IgG1 (Fc) polypeptide (Vassar et al., Science, 286, 735-742 (1999)). This fusion protein of BACE1 (1-460) and human Fc, named huBACE1:Fc, is constructed into the pJB02 vector. Human BACE1 (1-460):Fc (huBACE1:Fc) is transiently expressed in HEK293 cells. 250 μg cDNA of each construct is mixed with Fugene 6 and added to 1 liter HEK293 cells. Four days after the transfection, conditioned media are harvested for purification. huBACE1:Fc is purified by Protein A chromatography. The enzyme is stored at −80° C. in small aliquots. […]
Serial dilutions of test compounds are prepared as described above. […] The RFU of the mixture at time 0 is recorded at excitation wavelength 355 nm and emission wavelength 460 nm, after brief mixing on a plate shaker. […] The RFU at the end of incubation is recorded with the same excitation and emission settings used at time 0. […]

In the case of `COc1cnc(C(=O)Nc2ccc(F)c([C@]34COC[C@@]3(F)CSC(N)=N4)c2)cn1.Cl` [Example 2, N-[3-[(4aR,7aS)-2-Amino-4a-fluoro-5,7-dihydro-4H-furo[3,4-d][1,3]thiazin-7a-yl]-4-fluoro-phenyl]-5-methoxy-pyrazine-2-carboxamide hydrochloride], the IC50 was 13.2 nM.
